Legend:
[1] = test system: SMAD1/5/8 phosphorylation; conditions: cited from earlier work
human CD8 T cells = assay: treatment of human CD8 T cells with BMP ligands under chronic strong TCR stimulation; assay type: cell-based; conditions: day 21
Excerpt: BMP ligands can signal through type 1 (BMPR1, ACVR1) or type 2 receptors (BMPR2, ACVR2), which typically form heterotetramers upon ligand binding. Once heterotetramers are activated by ligands, they phosphorylate SMAD1/5/8 that binds to SMAD4 and translocates to nucleus and bind to target genes. […] To determine whether and which natural BMP ligand(s) recapitulate BMP4-agonist-mediated effects on dysfunctional CD8 T cells, we treated human CD8 T cells with different BMP ligands, including BMP2, BMP4, BMP6, and BMP10 under chronic strong TCR stimulation (FIG. 33).

B1: BMP2: natural BMP (Bone Morphogenetic Protein) ligand (protein, UniProt P12643 283-396, looked up)
Bone morphogenetic protein 2: QAKHKQRKRLKSSCKRHPLYVDFSDVGWNDWIVAPPGYHAFYCHGECPFPLADHLNSTNHAIVQTLVNSVNSKIPKACCVPTELSAISMLYLDENEKVVLKNYQDMVVEGCGCR
modifications: Bone morphogenetic protein 2
notes: natural BMP (Bone Morphogenetic Protein) ligand
For B1, the “activation of SMAD1/5/8 phosphorylation” value [1] is listed as “strong” and the “expression levels of terminal exhaustion-associated molecules (CD39, CD101, CD103)” value (human CD8 T cells) is listed as “significantly higher expression levels”.

From US20260108496A1, “METHODS FOR REPROGRAMING EXHAUSTED T CELLS AND BOOSTING IMMUNE CHECKPOINT BLOCKADE THERAPY FOR CANCER” (Ohio State Innovation Foundation, priority 2022, published 2026)
